Experimental data published in patent US20090134028A1, “Method of Estimating Effect of Test Chemical on Living Organisms” (Chemicals Evaluation and Research Institute, priority 2005, published 2009).

Assays:
[1] = in vivo; cited from earlier work
[2] = test system: liver cell; conditions: rat, in vivo

SMILES: CCCCC(CC)COC(=O)CCCCC(=O)OCC(CC)CCCC (centres unmarked) [Di(2-ethylhexyl)adipate]
- Carcinogenicity [1]: +

SMILES: IC(I)I [Iodoform]
- pathology of liver cell hypertrophy in the liver [2]: pathology of liver cell hypertrophy was seen
